What was measured:
[1] = biological target: human PDGFR-β (Met 1-Lys 531) (Homo sapiens, UniProt P09619); assay: Biacore T200 SPR binding to immobilised PDGFR-β extracellular domain
[2] = biological target: human PDGFR-β (Met 1-Lys 531) with the Phe136/Ala136 and Phe138/Ala138 mutations (Homo sapiens, UniProt P09619, F136A/F138A); assay: Biacore SPR binding to mutated PDGFR-β

PDGF-BB: platelet-derived growth factor ligand of PDGFR-β
binding to wild-type PDGFR-β [1]: firmly bind
binding to Phe136/Ala136 and Phe138/Ala138 mutated forms of PDGFR-β [2]: minimally bound

— paper PMC4909612 (EBioMedicine, 2016)
